The results in this text go back to patent publication US7745604B2, “Upstream control elements of the proopiomelanocortin gene and their use” (Oregon Health & Science University, priority 2001, dated 2010).

The chains behind the UniProt entries cited, without tags or fusion partners.
UniProt P42866, whole entry: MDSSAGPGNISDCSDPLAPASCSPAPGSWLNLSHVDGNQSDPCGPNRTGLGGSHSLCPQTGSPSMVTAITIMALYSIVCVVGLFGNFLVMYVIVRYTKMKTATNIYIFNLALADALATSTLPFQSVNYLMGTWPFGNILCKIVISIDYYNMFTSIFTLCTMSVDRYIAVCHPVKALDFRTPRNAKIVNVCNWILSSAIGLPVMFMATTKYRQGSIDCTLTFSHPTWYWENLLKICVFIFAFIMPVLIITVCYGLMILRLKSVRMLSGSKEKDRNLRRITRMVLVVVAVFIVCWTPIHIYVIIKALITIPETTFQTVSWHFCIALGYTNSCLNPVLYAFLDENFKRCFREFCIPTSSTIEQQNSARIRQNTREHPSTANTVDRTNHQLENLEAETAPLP

The assay addresses MOP-Rs on POMC neurons (Mus musculus, UniProt P42866).

“Also recorded” adds a separate entry of the source.

For CTAP, the “effect on current induced by Met-Enk in POMC cells” value is “Met-Enk elicited no current; also recorded: completely prevented the current induced by Met-Enk”.
